Measurements taken from patent US11046949B2, “Method and system for microbial lysis using periodates” (priority 2014, dated 2021).

Test system: Mycobacterium smegmatis
Assay: Periodate extraction method, release of DNA from Mycobacterium smegmatis
Conditions: heating at 80° C. for about 20 min

[O-][I+3]([O-])([O-])O [Periodate, sodium (meta)periodate]
release of DNA: about 100%
